# Measurements published in BindingDB's records for US8530494.
# Chains of the proteins cited; added tags and fusions are not shown.
# UniProt P41143, whole entry, looked up: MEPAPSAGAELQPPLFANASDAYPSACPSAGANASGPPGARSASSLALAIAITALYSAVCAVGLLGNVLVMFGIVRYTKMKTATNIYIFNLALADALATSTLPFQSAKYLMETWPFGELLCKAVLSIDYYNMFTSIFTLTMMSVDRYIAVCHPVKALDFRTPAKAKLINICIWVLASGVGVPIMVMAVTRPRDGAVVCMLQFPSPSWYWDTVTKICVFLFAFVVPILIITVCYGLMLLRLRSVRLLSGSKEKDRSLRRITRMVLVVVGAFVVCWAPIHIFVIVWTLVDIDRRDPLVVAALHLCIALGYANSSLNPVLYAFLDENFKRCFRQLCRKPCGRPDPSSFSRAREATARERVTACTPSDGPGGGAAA
# Target: Delta-type opioid receptor (Homo sapiens, UniProt P41143)
# Assay: ASSAY_NAME: Binding Assay DESCRIPTION: Binding assay of certain compounds of this invention to the opioid receptor was determine using radioligand binding assay (screening and dose-displacement).
compound,measurement,value
CC1(C)c2[nH]nc(Nc3ncnc4ccoc34)c2CN1C(=O)N[C@H]1C[C@@H]1c1ccccc1,Ki,0.058 µM
